Test results from article PMC9519442, “Genotype–phenotype correlations in WHIM syndrome: a systematic characterization of CXCR4^WHIM variants” (Genes and Immunity, 2022).

Sequences of proteins named here, by UniProt entry; tags and fusion partners are left off. A line that says so, or that is headed by a name, gives the form on record, which may keep a tag or linker. Residues count along the entry.
UniProt P61073, whole entry: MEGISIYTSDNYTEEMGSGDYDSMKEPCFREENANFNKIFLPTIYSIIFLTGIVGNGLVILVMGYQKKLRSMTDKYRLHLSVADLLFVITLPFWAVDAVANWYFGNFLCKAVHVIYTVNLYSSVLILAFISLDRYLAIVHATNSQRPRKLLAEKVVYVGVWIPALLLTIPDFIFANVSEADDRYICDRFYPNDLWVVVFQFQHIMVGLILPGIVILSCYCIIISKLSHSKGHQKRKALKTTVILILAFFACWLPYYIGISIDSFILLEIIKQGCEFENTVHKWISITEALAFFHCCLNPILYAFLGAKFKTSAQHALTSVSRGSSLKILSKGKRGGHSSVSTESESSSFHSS
CXCR4 S339F fs*6 (Homo sapiens, UniProt P61073), UniProt P61073, with tags, fused parts or gaps, stated change not applied: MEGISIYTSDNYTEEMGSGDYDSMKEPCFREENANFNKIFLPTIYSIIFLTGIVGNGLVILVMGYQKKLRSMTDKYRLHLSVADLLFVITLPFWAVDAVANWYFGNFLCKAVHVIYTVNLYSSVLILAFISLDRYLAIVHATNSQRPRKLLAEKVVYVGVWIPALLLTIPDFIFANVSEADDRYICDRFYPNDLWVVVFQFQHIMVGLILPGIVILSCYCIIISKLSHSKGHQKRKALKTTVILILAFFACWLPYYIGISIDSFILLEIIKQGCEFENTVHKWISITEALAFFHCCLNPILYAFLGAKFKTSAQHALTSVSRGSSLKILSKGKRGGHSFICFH
UniProt P61073, 1-337 limits assumed: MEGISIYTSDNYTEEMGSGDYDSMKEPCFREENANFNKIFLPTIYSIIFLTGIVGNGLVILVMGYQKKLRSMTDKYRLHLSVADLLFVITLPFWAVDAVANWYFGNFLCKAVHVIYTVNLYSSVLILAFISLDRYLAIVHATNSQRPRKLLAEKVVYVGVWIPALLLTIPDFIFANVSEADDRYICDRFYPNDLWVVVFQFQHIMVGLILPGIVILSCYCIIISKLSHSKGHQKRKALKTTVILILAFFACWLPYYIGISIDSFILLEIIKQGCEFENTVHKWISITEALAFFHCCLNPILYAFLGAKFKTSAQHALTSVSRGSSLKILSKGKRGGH
CXCR4 S339C fs*4 (Homo sapiens, UniProt P61073), UniProt P61073, with tags, fused parts or gaps, stated change not applied: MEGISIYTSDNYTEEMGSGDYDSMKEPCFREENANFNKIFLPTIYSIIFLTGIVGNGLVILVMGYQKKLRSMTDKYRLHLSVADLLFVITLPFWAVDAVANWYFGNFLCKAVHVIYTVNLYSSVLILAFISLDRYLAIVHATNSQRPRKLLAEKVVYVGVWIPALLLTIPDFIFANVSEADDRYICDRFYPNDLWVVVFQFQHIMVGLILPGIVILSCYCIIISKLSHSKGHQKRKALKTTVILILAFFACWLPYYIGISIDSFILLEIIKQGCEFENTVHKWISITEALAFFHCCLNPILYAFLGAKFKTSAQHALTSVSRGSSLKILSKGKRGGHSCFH
CXCR4 S341P fs*25 (Homo sapiens, UniProt P61073), UniProt P61073, with tags, fused parts or gaps, stated change not applied: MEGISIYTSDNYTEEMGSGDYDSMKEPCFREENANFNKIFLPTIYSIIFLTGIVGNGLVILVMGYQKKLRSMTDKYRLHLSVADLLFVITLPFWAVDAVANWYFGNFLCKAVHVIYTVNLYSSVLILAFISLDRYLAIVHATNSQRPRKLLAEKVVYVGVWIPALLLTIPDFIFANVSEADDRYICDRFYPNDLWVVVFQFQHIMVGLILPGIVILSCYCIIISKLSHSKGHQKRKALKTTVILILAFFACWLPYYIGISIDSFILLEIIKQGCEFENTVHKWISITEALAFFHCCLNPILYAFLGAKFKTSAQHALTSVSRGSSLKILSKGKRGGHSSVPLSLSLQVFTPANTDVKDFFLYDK
CXCR4 S324V fs*20 (Homo sapiens, UniProt P61073), UniProt P61073, with tags, fused parts or gaps, stated change not applied: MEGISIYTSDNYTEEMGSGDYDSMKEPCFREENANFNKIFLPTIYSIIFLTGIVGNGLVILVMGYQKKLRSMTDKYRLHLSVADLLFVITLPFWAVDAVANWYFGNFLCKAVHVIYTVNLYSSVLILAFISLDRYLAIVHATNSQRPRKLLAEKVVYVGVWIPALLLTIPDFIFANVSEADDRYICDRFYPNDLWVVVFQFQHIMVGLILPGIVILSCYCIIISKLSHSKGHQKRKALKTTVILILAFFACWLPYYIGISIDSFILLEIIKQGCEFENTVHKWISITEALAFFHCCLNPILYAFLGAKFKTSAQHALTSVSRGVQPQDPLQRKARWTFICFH
UniProt P61073, 1-342 limits assumed: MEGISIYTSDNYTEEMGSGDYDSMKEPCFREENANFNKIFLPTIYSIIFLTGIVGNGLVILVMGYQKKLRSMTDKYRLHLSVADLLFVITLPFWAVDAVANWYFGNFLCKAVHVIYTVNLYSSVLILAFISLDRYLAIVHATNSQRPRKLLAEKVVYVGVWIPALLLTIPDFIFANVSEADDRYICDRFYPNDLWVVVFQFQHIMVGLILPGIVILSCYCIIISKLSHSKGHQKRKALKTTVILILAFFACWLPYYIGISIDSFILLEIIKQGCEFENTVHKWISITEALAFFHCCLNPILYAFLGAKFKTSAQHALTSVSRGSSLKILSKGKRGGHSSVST
CXCR4 V320E fs*23 (Homo sapiens, UniProt P61073), UniProt P61073, with tags, fused parts or gaps, stated change not applied: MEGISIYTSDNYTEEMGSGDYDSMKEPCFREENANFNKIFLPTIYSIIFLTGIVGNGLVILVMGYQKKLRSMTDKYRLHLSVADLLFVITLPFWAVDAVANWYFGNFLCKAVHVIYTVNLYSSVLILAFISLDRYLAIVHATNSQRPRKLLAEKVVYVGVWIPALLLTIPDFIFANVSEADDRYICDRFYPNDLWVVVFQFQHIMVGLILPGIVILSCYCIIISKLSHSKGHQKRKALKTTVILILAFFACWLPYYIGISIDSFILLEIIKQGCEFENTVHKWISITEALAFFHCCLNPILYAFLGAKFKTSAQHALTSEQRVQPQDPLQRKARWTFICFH
CXCR4 S319C fs*24 (Homo sapiens, UniProt P61073), UniProt P61073, with tags, fused parts or gaps, stated change not applied: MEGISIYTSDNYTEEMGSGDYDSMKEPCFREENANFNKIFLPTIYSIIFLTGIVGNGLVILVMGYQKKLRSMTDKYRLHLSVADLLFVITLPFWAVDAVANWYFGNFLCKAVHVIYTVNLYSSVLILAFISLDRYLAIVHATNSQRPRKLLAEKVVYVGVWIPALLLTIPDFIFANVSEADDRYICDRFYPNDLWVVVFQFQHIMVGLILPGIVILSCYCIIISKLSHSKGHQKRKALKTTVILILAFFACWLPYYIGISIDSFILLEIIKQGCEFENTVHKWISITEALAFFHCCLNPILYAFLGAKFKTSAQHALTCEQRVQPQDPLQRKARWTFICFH
CXCR4 L329Q fs*13 (Homo sapiens, UniProt P61073), UniProt P61073, with tags, fused parts or gaps, stated change not applied: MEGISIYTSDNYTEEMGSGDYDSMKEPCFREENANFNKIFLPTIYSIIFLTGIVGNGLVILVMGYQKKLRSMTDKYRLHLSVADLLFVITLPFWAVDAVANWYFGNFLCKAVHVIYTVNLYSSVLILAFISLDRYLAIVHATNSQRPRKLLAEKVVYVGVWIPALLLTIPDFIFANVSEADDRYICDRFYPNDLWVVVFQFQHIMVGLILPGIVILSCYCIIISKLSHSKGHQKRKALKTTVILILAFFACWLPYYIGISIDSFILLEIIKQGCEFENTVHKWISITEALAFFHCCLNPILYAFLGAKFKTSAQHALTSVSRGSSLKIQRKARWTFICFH
UniProt P61073, whole entry E343K: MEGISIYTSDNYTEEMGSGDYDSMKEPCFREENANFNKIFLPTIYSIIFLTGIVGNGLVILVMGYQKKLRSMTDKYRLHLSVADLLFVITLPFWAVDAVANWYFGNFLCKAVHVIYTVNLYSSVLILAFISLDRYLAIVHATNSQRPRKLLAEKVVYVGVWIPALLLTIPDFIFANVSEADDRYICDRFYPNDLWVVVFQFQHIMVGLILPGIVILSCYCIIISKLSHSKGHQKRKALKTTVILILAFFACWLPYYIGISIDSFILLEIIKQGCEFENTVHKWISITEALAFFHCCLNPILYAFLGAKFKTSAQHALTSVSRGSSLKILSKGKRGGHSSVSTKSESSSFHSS
UniProt P61073, 1-335 limits assumed: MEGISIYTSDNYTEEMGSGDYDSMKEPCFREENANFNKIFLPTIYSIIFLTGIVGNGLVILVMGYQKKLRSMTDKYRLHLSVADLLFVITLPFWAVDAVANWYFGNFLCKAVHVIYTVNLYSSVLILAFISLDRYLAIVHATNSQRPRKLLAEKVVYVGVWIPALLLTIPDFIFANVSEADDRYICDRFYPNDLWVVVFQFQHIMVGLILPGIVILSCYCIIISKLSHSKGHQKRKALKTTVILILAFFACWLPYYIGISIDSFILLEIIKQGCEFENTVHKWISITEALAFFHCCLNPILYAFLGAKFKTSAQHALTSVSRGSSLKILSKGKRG
CXCR4 T318P fs*3 (Homo sapiens, UniProt P61073), UniProt P61073, with tags, fused parts or gaps, stated change not applied: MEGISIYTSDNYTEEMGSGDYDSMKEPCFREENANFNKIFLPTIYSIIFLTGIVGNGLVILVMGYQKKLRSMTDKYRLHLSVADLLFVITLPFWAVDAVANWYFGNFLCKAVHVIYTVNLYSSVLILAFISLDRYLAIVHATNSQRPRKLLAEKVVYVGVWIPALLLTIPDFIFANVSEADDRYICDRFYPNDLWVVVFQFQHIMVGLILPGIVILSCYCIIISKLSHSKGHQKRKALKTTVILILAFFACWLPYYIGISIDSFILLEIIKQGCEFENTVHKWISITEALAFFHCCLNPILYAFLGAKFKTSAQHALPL
UniProt P61073, 1-333 limits assumed: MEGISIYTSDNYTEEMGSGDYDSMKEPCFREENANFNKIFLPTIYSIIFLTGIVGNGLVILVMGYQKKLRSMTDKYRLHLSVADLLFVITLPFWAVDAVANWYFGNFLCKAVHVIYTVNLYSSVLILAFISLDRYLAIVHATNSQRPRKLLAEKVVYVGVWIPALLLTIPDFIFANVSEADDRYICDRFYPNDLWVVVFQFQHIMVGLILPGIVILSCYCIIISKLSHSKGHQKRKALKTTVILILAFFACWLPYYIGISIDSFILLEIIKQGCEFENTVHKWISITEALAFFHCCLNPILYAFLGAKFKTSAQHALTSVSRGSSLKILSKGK
UniProt P61073, 1-317 limits assumed: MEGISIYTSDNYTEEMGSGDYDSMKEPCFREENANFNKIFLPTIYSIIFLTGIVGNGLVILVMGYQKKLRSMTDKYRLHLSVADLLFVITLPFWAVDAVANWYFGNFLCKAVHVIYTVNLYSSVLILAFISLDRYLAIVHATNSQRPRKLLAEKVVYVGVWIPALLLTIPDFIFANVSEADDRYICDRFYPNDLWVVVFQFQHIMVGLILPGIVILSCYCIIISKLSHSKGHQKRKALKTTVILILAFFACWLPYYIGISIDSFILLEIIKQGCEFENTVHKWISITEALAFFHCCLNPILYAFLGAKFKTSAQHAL

Legend:
[1] = biological target: WT CXCR4 (WT/WT Jurkat cells) (Homo sapiens, UniProt P61073); details: read-out: Chemotaxis (mavorixafor) IC50; Jurkat WT/WT (C3); migration towards 0.4 nM CXCL12; ± SE
CXCR4 S339F fs*6 = biological target: T1, CXCR4 S339F fs*6 (Homo sapiens, UniProt P61073); experiment: Ca2+ mobilization assay, K562 cells with stable CXCR4 expression; format: cell-based; details: K562 stable S339F fs*6; preincubated with mavorixafor, then 10 nM CXCL12
T1 construct: expressed in transfected cells; host or cells: K562
Description: (§1) Stable K562 clones expressing CXCR4 (1 × 10^5 cells/well) were seeded in black 96-well plates with transparent bottom coated with poly-L-lysine (BioCoat®, Corning) and serum-starved for 24 h. Medium was removed and cells were loaded with 100 µl of fluo-4 AM (3 µM, Invitrogen) dye solution for 45 min at 37 °C. Dye solution was prepared by diluting fluo-4 powder in DMSO + 10% Pluronic F127 (Thermo Fisher Scientific, Waltham, Massachusetts, USA) to 3 mM and then preparing the final dilution in assay buffer (HBSS with Ca^2+ and Mg^2+, 20 mM HEPES, 0.375 g/l NaHCO3, 0.1% BSA + 0.77 g/L probenecid [Thermo Fisher Scientific]). Subsequently, 100 µl of assay buffer alone or assay buffer with compound dilutions was added and the plates were equilibrated in the plate reader for an additional 20 min at 37 °C. Jurkat cells (3 × 10^5 cells/well) were incubated with the Screen Quest Calbryte-520 Probenecid-Free and Wash-Free Calcium Assay Kit (AAT Bioquest, Sunnyvale, California, USA) according to manufacturer’s instructions. CXCL12 was injected with a simultaneous measurement of fluorescent signal (FlexStation® 3 Multi-Mode Microplate Reader; Molecular Devices, San Jose, California, USA). Raw traces were analyzed in SoftMax Pro 7 Software (Molecular Devices). The arbitrary units were calculated as the difference between maximal and minimal signal after treatment injection, normalized to the baseline signal before injection. Maximal effect (Emax) and half-maximal effective and inhibitory concentrations (EC50 and IC50, respectively) were calculated in Prism (GraphPad Software, San Diego, California, USA).

CXCR4 S338X = biological target: T2, CXCR4 S338X (Homo sapiens, UniProt P61073); experiment: as above; format: cell-based; details: preincubated with mavorixafor, then 10 nM CXCL12
T2 construct: expressed in transfected cells; host or cells: K562
Description: as §1

CXCR4 S339C fs*4 = biological target: T3, CXCR4 S339C fs*4 (Homo sapiens, UniProt P61073); experiment: as above; format: cell-based; details: K562 stable S339C fs*4; preincubated with mavorixafor, then 10 nM CXCL12
T3 construct: expressed in transfected cells; host or cells: K562
Description: as §1

CXCR4 S341P fs*25 = biological target: T4, CXCR4 S341P fs*25 (Homo sapiens, UniProt P61073); experiment: as above; format: cell-based; details: K562 stable S341P fs*25; preincubated with mavorixafor, then 10 nM CXCL12
T4 construct: expressed in transfected cells; host or cells: K562
Description: as §1

CXCR4 S324V fs*20 = biological target: T5, CXCR4 S324V fs*20 (Homo sapiens, UniProt P61073); experiment: as above; format: cell-based; details: K562 stable S324V fs*20; preincubated with mavorixafor, then 10 nM CXCL12
T5 construct: expressed in transfected cells; host or cells: K562
Description: as §1

CXCR4 E343X = biological target: T6, CXCR4 E343X (Homo sapiens, UniProt P61073); experiment: as above; format: cell-based; details: preincubated with mavorixafor, then 10 nM CXCL12
T6 construct: expressed in transfected cells; host or cells: K562
Description: as §1

CXCR4 V320E fs*23 = biological target: T7, CXCR4 V320E fs*23 (Homo sapiens, UniProt P61073); experiment: as above; format: cell-based; details: K562 stable V320E fs*23; preincubated with mavorixafor, then 10 nM CXCL12
T7 construct: expressed in transfected cells; host or cells: K562
Description: as §1

CXCR4 S319C fs*24 = biological target: T8, CXCR4 S319C fs*24 (Homo sapiens, UniProt P61073); experiment: as above; format: cell-based; details: K562 stable S319C fs*24; preincubated with mavorixafor, then 10 nM CXCL12
T8 construct: expressed in transfected cells; host or cells: K562
Description: as §1

CXCR4 L329Q fs*13 = biological target: T9, CXCR4 L329Q fs*13 (Homo sapiens, UniProt P61073); experiment: as above; format: cell-based; details: K562 stable L329Q fs*13; preincubated with mavorixafor, then 10 nM CXCL12
T9 construct: expressed in transfected cells; host or cells: K562
Description: as §1

CXCR4 E343K = biological target: T10, CXCR4 E343K (Homo sapiens, UniProt P61073, E343K); experiment: as above; format: cell-based; details: preincubated with mavorixafor, then 10 nM CXCL12
T10 construct: expressed in transfected cells; host or cells: K562
Description: as §1

CXCR4 G336X = biological target: T11, CXCR4 G336X (Homo sapiens, UniProt P61073); experiment: as above; format: cell-based; details: preincubated with mavorixafor, then 10 nM CXCL12
T11 construct: expressed in transfected cells; host or cells: K562
Description: as §1

WT CXCR4 = biological target: T12, WT CXCR4 (Homo sapiens, UniProt P61073); experiment: as above; format: cell-based; details: preincubated with mavorixafor, then 10 nM CXCL12
T12 construct: cloned into pcDNA3.1(Hygro+) via NheI/EcoRV to give pcDNA3.1_CXCR4; expressed in transfected cells; host or cells: K562
Description: as §1

CXCR4 T318P fs*3 = biological target: T13, CXCR4 T318P fs*3 (Homo sapiens, UniProt P61073); experiment: as above; format: cell-based; details: K562 stable T318P fs*3; preincubated with mavorixafor, then 10 nM CXCL12
T13 construct: expressed in transfected cells; host or cells: K562
Description: as §1

[2] = biological target: T14, R334X/R334X CXCR4 (RX/RX Jurkat cells) (Homo sapiens, UniProt P61073); experiment: cell-based; details: migration towards 0.4 nM CXCL12, ± SE
[3] = biological target: T15, R334X/WT CXCR4 (RX/WT Jurkat cells) (Homo sapiens, UniProt P61073); experiment: Ca2+ mobilization assay, Jurkat cells; format: cell-based; details: Jurkat RX/WT (B2); stimulated with 100 nM CXCL12; ± SE; read-out: Ca2+ mobilization (mavorixafor) IC50
T15 construct: cells endogenously expressing WT, R334X/WT or R334X/R334X CXCR4 at similar levels; endogenous in cells; host or cells: Jurkat E6-1 clone B2 (CRISPR-Cas9 edited, made at Applied StemCell)
Description: as §1

[4] = biological target: T16, WT CXCR4 (parental and WT/WT Jurkat cells) (Homo sapiens, UniProt P61073); experiment: Ca2+ mobilization assay, Jurkat cells; format: cell-based; details: stimulated with 100 nM CXCL12, ± SE, read-out: Ca2+ mobilization (mavorixafor) IC50
T16 construct: A Jurkat cell line (with endogenous expression of WT CXCR4); endogenous in cells; host or cells: Jurkat E6-1 (parental; clone C3 with silent edits)
Description: as §1

[5] = biological target: CXCR4 (WT/WT, RX/WT, RX/RX) (Homo sapiens, UniProt P61073); experiment: Ligand binding inhibition assay (AF647-CXCL12), Jurkat cells, across all cell lines; details: read-out: Potency of inhibition of CXCL12 binding to CXCR4, range
[6] = biological target: T15, R334X/WT CXCR4 (RX/WT Jurkat cells); experiment: Ligand binding inhibition assay (AF647-CXCL12), Jurkat cells; details: Jurkat RX/WT (B2), ± SE, read-out: CXCL12 binding inhibition (mavorixafor) IC50
[7] = biological target: T14, R334X/R334X CXCR4 (RX/RX Jurkat cells); experiment: cell-based; details: AF647-CXCL12, ± SE
[8] = biological target: T14, R334X/R334X CXCR4 (RX/RX Jurkat cells); experiment: Ca2+ mobilization assay, Jurkat cells; format: cell-based; design: a cellular model of homozygous and heterozygous R334X CXCR4 in an endogenous locus; host or cells: Jurkat (E6-1, ATCC), CRISPR-Cas9 clones A3 and B5 (RX/RX); details: stimulated with 100 nM CXCL12, ± SE, read-out: Ca2+ mobilization (mavorixafor) IC50
Description: as §1, with “Jurkat cells (3 × 10^5 cells/well) were incubated with the Screen Quest Calbryte-520 Probenecid-Free and Wash-Free Calcium Assay Kit (AAT Bioquest, Sunnyvale, California, USA) according to manufacturer’s instructions.” left out

[9] = biological target: T15, R334X/WT CXCR4 (RX/WT Jurkat cells); experiment: Transwell chemotaxis assay, Jurkat cells; format: cell-based; details: Jurkat RX/WT (B2); migration towards 0.4 nM CXCL12; ± SE; read-out: Chemotaxis (mavorixafor) IC50
all CXCR4^WHIM variants = all CXCR4^WHIM variants (Homo sapiens, UniProt P61073); experiment: Ca2+ mobilization assay, K562 cells, pooled over variants; format: cell-based; details: 10 nM CXCL12, read-out: IC50 of mavorixafor, Ca2+ mobilization, range over variants
Description: as §1, with “Jurkat cells (3 × 10^5 cells/well) were incubated with the Screen Quest Calbryte-520 Probenecid-Free and Wash-Free Calcium Assay Kit (AAT Bioquest, Sunnyvale, California, USA) according to manufacturer’s instructions.” left out

[10] = biological target: T16, WT CXCR4 (parental and WT/WT Jurkat cells); experiment: Ligand binding inhibition assay (AF647-CXCL12), Jurkat cells; details: ± SE, read-out: CXCL12 binding inhibition (mavorixafor) IC50

IC50 [1]: 30 ± 10 nM | IC50 (CXCR4 S339F fs*6): 26.7 nM | IC50 (CXCR4 S338X): 7.7 nM | IC50 (CXCR4 S339C fs*4): 8.6 nM | IC50 (CXCR4 S341P fs*25): 18.2 nM | IC50 (CXCR4 S324V fs*20): 37.9 nM | IC50 (CXCR4 E343X): 8.8 nM | IC50 (CXCR4 V320E fs*23): 17 nM | IC50 (CXCR4 S319C fs*24): 39 nM | IC50 (CXCR4 L329Q fs*13): 19.3 nM | IC50 (CXCR4 E343K): 19.4 nM | IC50 (CXCR4 G336X): 11.8 nM | IC50 (WT CXCR4): 6.3 nM | IC50 (CXCR4 T318P fs*3): 7.6 nM | IC50 ([2]; Chemotaxis (mavorixafor) IC50, Jurkat RX/RX (A3)): 188 ± 20 nM | IC50 ([2]; Chemotaxis (mavorixafor) IC50, Jurkat RX/RX (B5)): 153 ± 23 nM | IC50 [3]: 3.4 ± 3.6 nM | IC50 ([4]; Jurkat Parental): 1.5 ± 0.9 nM | IC50 ([4]; Jurkat WT/WT (C3)): 0.7 ± 0.3 nM | IC50 [5]: 1.6 to 2.4 nM | IC50 [6]: 2.4 ± 0.07 nM | IC50 ([7]; CXCL12 binding inhibition (mavorixafor) IC50, Jurkat RX/RX (A3)): 2.1 ± 0.1 nM | IC50 ([7]; CXCL12 binding inhibition (mavorixafor) IC50, Jurkat RX/RX (B5)): 1.9 ± 0.15 nM | IC50 ([8]; Jurkat RX/RX (A3)): 5 ± 2.8 nM | IC50 ([8]; Jurkat RX/RX (B5)): 2 ± 1.2 nM | IC50 [9]: 366 ± 334 nM | IC50 (all CXCR4^WHIM variants): 7.6 to 39 nM | IC50 ([10]; Jurkat Parental): 1.9 ± 0.09 nM | IC50 ([10]; Jurkat WT/WT (C3)): 1.6 ± 0.12 nM
SMILES: NCCCCN(Cc1nc2ccccc2[nH]1)[C@H]1CCCc2cccnc21 [mavorixafor]
